# Measurements published in article PMC12207880 (The Oncologist, 2025).
# Tested on: patients with advanced solid tumors
structure (smiles),measurement,setting,value
Cc1nc2c(F)cc(-c3nc(Nc4ccc5c(n4)CCN(CCN(C)C)C5)ncc3F)cc2n1C1CC1,"Hyponatraemia, Grade All","300 mg QD, N = 4",0 n (%)
same,"Hyponatraemia, Grade ≥3","300 mg QD, N = 4",0 n (%)
same,"Leucocyte count decreased, Grade All","300 mg QD, N = 4",4 (100) n (%)
same,"Leucocyte count decreased, Grade ≥3","300 mg QD, N = 4",0 n (%)
same,"Lymphocyte count decreased, Grade All","300 mg QD, N = 4",3 (75.0) n (%)
same,"Lymphocyte count decreased, Grade ≥3","300 mg QD, N = 4",1 (25.0) n (%)
same,"Nausea, Grade All","300 mg QD, N = 4",0 n (%)
same,"Nausea, Grade ≥3","300 mg QD, N = 4",0 n (%)
same,"Neutrophil count decreased, Grade All","300 mg QD, N = 4",4 (100) n (%)
same,"Neutrophil count decreased, Grade ≥3","300 mg QD, N = 4",0 n (%)
same,"Platelet count decreased, Grade All","300 mg QD, N = 4",2 (50.0) n (%)
same,"Platelet count decreased, Grade ≥3","300 mg QD, N = 4",0 n (%)
same,"Rash, Grade All","300 mg QD, N = 4",0 n (%)
same,"Rash, Grade ≥3","300 mg QD, N = 4",0 n (%)
same,"Vomiting, Grade All","300 mg QD, N = 4",0 n (%)
same,"Vomiting, Grade ≥3","300 mg QD, N = 4",0 n (%)
same,"γ-glutamyl transpeptidase increased, Grade All","300 mg QD, N = 4",1 (25.0) n (%)
same,"γ-glutamyl transpeptidase increased, Grade ≥3","300 mg QD, N = 4",0 n (%)
same,"Abdominal pain, Grade All","400 mg QD, N = 9",3 (33.3) n (%)
same,"Abdominal pain, Grade ≥3","400 mg QD, N = 9",0 n (%)
same,"Alanine aminotransferase increased, Grade All","400 mg QD, N = 9",3 (33.3) n (%)
same,"Alanine aminotransferase increased, Grade ≥3","400 mg QD, N = 9",1 (11.1) n (%)
same,"Alkaline phosphatase increased, Grade All","400 mg QD, N = 9",1 (11.1) n (%)
same,"Alkaline phosphatase increased, Grade ≥3","400 mg QD, N = 9",0 n (%)
same,"All TRAEs, Grade All","400 mg QD, N = 9",9 (100) n (%)
same,"All TRAEs, Grade ≥3","400 mg QD, N = 9",7 (77.8) n (%)
same,"Anaemia, Grade All","400 mg QD, N = 9",5 (55.6) n (%)
same,"Anaemia, Grade ≥3","400 mg QD, N = 9",0 n (%)
same,"Appetite decreased, Grade All","400 mg QD, N = 9",0 n (%)
same,"Appetite decreased, Grade ≥3","400 mg QD, N = 9",0 n (%)
same,"Aspartate aminotransferase increased, Grade All","400 mg QD, N = 9",4 (44.4) n (%)
same,"Aspartate aminotransferase increased, Grade ≥3","400 mg QD, N = 9",0 n (%)
same,"Blood creatinine increased, Grade All","400 mg QD, N = 9",1 (11.1) n (%)
same,"Blood creatinine increased, Grade ≥3","400 mg QD, N = 9",0 n (%)
same,"Blood lactic dehydrogenase increased, Grade All","400 mg QD, N = 9",1 (11.1) n (%)
same,"Blood lactic dehydrogenase increased, Grade ≥3","400 mg QD, N = 9",0 n (%)
same,"Diarrhoea, Grade All","400 mg QD, N = 9",7 (77.8) n (%)
same,"Diarrhoea, Grade ≥3","400 mg QD, N = 9",2 (22.2) n (%)
same,"Dizziness, Grade All","400 mg QD, N = 9",0 n (%)
same,"Dizziness, Grade ≥3","400 mg QD, N = 9",0 n (%)
same,"Electrocardiogram QT prolonged, Grade All","400 mg QD, N = 9",0 n (%)
same,"Electrocardiogram QT prolonged, Grade ≥3","400 mg QD, N = 9",0 n (%)
same,"Fatigue, Grade All","400 mg QD, N = 9",3 (33.3) n (%)
same,"Fatigue, Grade ≥3","400 mg QD, N = 9",2 (22.2) n (%)
same,"Haematuria, Grade All","400 mg QD, N = 9",0 n (%)
same,"Haematuria, Grade ≥ 3","400 mg QD, N = 9",0 n (%)
same,"Hypoalbuminemia, Grade All","400 mg QD, N = 9",0 n (%)
same,"Hypoalbuminemia, Grade ≥3","400 mg QD, N = 9",0 n (%)
same,"Hypokalaemia, Grade All","400 mg QD, N = 9",4 (44.4) n (%)
same,"Hypokalaemia, Grade ≥3","400 mg QD, N = 9",2 (22.2) n (%)
same,"Hyponatraemia, Grade All","400 mg QD, N = 9",1 (11.1) n (%)
same,"Hyponatraemia, Grade ≥3","400 mg QD, N = 9",0 n (%)
same,"Leucocyte count decreased, Grade All","400 mg QD, N = 9",8 (88.9) n (%)
same,"Leucocyte count decreased, Grade ≥3","400 mg QD, N = 9",2 (22.2) n (%)
same,"Lymphocyte count decreased, Grade All","400 mg QD, N = 9",2 (22.2) n (%)
same,"Lymphocyte count decreased, Grade ≥3","400 mg QD, N = 9",0 n (%)
same,"Nausea, Grade All","400 mg QD, N = 9",5 (55.6) n (%)
same,"Nausea, Grade ≥3","400 mg QD, N = 9",1 (11.1) n (%)
same,"Neutrophil count decreased, Grade All","400 mg QD, N = 9",7 (77.8) n (%)
same,"Neutrophil count decreased, Grade ≥3","400 mg QD, N = 9",2 (22.2) n (%)
same,"Platelet count decreased, Grade All","400 mg QD, N = 9",4 (44.4) n (%)
same,"Platelet count decreased, Grade ≥3","400 mg QD, N = 9",0 n (%)
same,"Rash, Grade All","400 mg QD, N = 9",1 (11.1) n (%)
same,"Rash, Grade ≥3","400 mg QD, N = 9",0 n (%)
same,"Vomiting, Grade All","400 mg QD, N = 9",6 (66.7) n (%)
same,"Vomiting, Grade ≥3","400 mg QD, N = 9",0 n (%)
same,"γ-glutamyl transpeptidase increased, Grade All","400 mg QD, N = 9",2 (22.2) n (%)
same,"γ-glutamyl transpeptidase increased, Grade ≥3","400 mg QD, N = 9",1 (11.1) n (%)
same,"Abdominal pain, Grade All","600 mg QD, N = 7",3 (42.9) n (%)
same,"Abdominal pain, Grade ≥3","600 mg QD, N = 7",0 n (%)
same,"Alanine aminotransferase increased, Grade All","600 mg QD, N = 7",1 (14.3) n (%)
same,"Alanine aminotransferase increased, Grade ≥3","600 mg QD, N = 7",0 n (%)
same,"Alkaline phosphatase increased, Grade All","600 mg QD, N = 7",1 (14.3) n (%)
same,"Alkaline phosphatase increased, Grade ≥3","600 mg QD, N = 7",0 n (%)
same,"All TRAEs, Grade All","600 mg QD, N = 7",7 (100) n (%)
same,"All TRAEs, Grade ≥3","600 mg QD, N = 7",4 (57.1) n (%)
same,"Anaemia, Grade All","600 mg QD, N = 7",7 (100) n (%)
same,"Anaemia, Grade ≥3","600 mg QD, N = 7",0 n (%)
same,"Appetite decreased, Grade All","600 mg QD, N = 7",2 (28.6) n (%)
same,"Appetite decreased, Grade ≥3","600 mg QD, N = 7",0 n (%)
same,"Aspartate aminotransferase increased, Grade All","600 mg QD, N = 7",2 (28.6) n (%)
same,"Aspartate aminotransferase increased, Grade ≥3","600 mg QD, N = 7",0 n (%)
same,"Blood creatinine increased, Grade All","600 mg QD, N = 7",0 n (%)
same,"Blood creatinine increased, Grade ≥3","600 mg QD, N = 7",0 n (%)
same,"Blood lactic dehydrogenase increased, Grade All","600 mg QD, N = 7",2 (28.6) n (%)
same,"Blood lactic dehydrogenase increased, Grade ≥3","600 mg QD, N = 7",0 n (%)
same,"Diarrhoea, Grade All","600 mg QD, N = 7",6 (85.7) n (%)
same,"Diarrhoea, Grade ≥3","600 mg QD, N = 7",0 n (%)
same,"Dizziness, Grade All","600 mg QD, N = 7",2 (28.6) n (%)
same,"Dizziness, Grade ≥3","600 mg QD, N = 7",0 n (%)
same,"Electrocardiogram QT prolonged, Grade All","600 mg QD, N = 7",0 n (%)

# Read-outs that look alike come from different tables or passages of the source.
